Measured values published in patent publication US9159937B2, “Heteroleptic light-emitting complexes” (SOLVAY SA, priority 2011, dated 2015).

Assay: Solubility evaluation in toluene
Type: physicochemical
Procedure: Solubility evaluation were performed at 25° C. using toluene as solvent.

- Toluene solubility S at 25° C.: S > 1.0 wt %
- Toluene solubility S at 25° C. (listed as Ir(n-hexPhQ)3): > 1 wt %
Substance: [Ir(n-hexPhQ)3]

Read-outs that look alike come from different tables or passages of the source.
